# Laboratory results as given in patent US10189836B2, “Therapeutic compounds, compositions and methods of use thereof” (Genentech, Inc., priority 2015, dated 2019).
# Test system: JAK1-dependent STAT6 phosphorylation downstream of IL-13 stimulation in BEAS-2B cells
row,Structure (SMILES),IC50 [nM]
1,"CN1CCN(C(=O)Cn2cc(Nc3nc4c(N5CC6CCC(C5)N6S(=O)(=O)Cc5ccccc5F)cccn4n3)cn2)CC1 [Example 158, 2-[4-[[8-[8-[(2-fluorophenyl)methylsulfonyl]-3,8-diazabicyclo[3.2.1]octan-3-yl]-[1,2,4]triazolo[1,5-a]pyridin-2-yl]amino]pyrazol-1-yl]-1-(4-methylpiperazin-1-yl)ethanone]",73.2
2,"CN1CCN(C(=O)Cn2cc(Nc3nc4c(N5CC6CCC(C5)N6C(=O)C5CC5C(F)(F)F)cccn4n3)cn2)CC1 (stereo not drawn) [Example 14, 1-(4-methylpiperazin-1-yl)-2-[4-[[8-[8-[2-(trifluoromethyl)cyclopropanecarbonyl]-3,8-diazabicyclo[3.2.1]octan-3-yl]-[1,2,4]triazolo[1,5-a]pyridin-2-yl]amino]pyrazol-1-yl]ethanone]",27.9
3,"CN1CCN(C(=O)Cn2cc(Nc3nc4c(N5CC6CCC(C5)N6C(=O)N5CCC(C(F)(F)F)C5)cccn4n3)cn2)CC1 (stereo not drawn) [Example 181, 1-(4-methylpiperazin-1-yl)-2-[4-[[8-[8-(3-(trifluoromethyl)pyrrolidine-1-carbonyl]-3,8-diazabicyclo[3.2.1]octan-3-yl]-[1,2,4]triazolo[1,5-a]pyridin-2-yl]amino]pyrazol-1-yl]ethanone]",36.3
4,"CN1CCN(C(=O)Cn2cc(Nc3nc4c(N5CC6CCC(C5)N6C(=O)C5CC(C#N)C5)cccn4n3)cn2)CC1 (stereo not drawn) [Example 92, 3-[3-[2-[[1-[2-(4-methylpiperazin-1-yl)-2-oxo-ethyl]pyrazol-4-yl]amino]-[1,2,4]triazolo[1,5-a]pyridin-8-yl]-3,8-diazabicyclo[3.2.1]octane-8-carbonyl]cyclo-butanecarbonitrile]",179
5,"CN1CCN(C(=O)Cn2cc(Nc3nc4c(N5CC6CCC(C5)N6S(=O)(=O)Cc5ccc(C(F)(F)F)cc5)cccn4n3)cn2)CC1 [Example 184, 1-(4-methylpiperazin-1-yl)-2-[4-[[8-[8-([4-(trifluoromethyl)phenyl]methylsulfonyl]-3,8-diazabicyclo[3.2.1]octan-3-yl]-[1,2,4]triazolo[1,5-a]pyridin-2-yl]amino]pyrazol-1-yl]ethanone]",77.5
6,"O=C(Cn1cc(Nc2nc3c(N4CC5CCC(C4)N5C(=O)CCC(F)(F)F)cccn3n2)cn1)N1CCC(CN2CCOCC2)CC1 [Example 41, 4,4,4-trifluoro-1-[3-[2-[[1-[2[4-(morpholinomethyl)-1-piperidyl]-2-oxo-ethyl]pyrazol-4-yl]amino]-[1,2,4]triazolo[1,5-a]pyridin-8-yl]-3,8-diazabicyclo[3.2.1]octan-8-yl]butan-1-one]",51.4
7,"Cc1ncc(S(=O)(=O)N2C3CCC2CN(c2cccn4nc(Nc5cnn(CC(=O)N6CCN(C)CC6)c5)nc24)C3)s1 [Example 138, 1-(4-methylpiperazin-1-yl)-2-[4-[[8-[8-(2-methylthiazol-5-yl)sulfonyl-3,8-diazabicyclo[3.2.1]octan-3-yl]-[1,2,4]triazolo[1,5-a]pyridin-2-yl]amino]pyrazol-1-yl]ethanone]",27
8,"CN1CCN(C(=O)Cn2cc(Nc3nc4c(N5C[C@H]6CC[C@@H](C5)[C@@H]6OCc5ccncc5)cccn4n3)cn2)CC1 [Example 189, 1-(4-methylpiperazin-1-yl)-2-(4-((8-((1R,5 S,8s)-8-(pyridin-4-ylmethoxy)-3-azabicyclo[3.2.1]octan-3-yl)-[1,2,4]triazolo[1,5-a]pyridin-2-yl)amino)-1H-pyrazol-1-yl)ethanone]",85.8
9,"CN1CCN(C(=O)Cn2cc(Nc3nc4c(N5CC6CCC(C5)N6C(=O)N5CCC(C#N)CC5)cccn4n3)cn2)CC1 [Example 182, 1-[3-[2-[[1-[2-(4-methylpiperazin-1-yl)-2-oxo-ethyl]pyrazol-4-yl]amino]-[1,2,4]triazolo[1,5-a]pyridin-8-yl]-3,8-diazabicyclo[3.2.1]octane-8-carbonyl]piperidine-4-carbonitrile]",17
10,"O=C(Cn1cc(Nc2nc3c(N4CC5CCC(C4)N5C(=O)CCC(F)(F)F)cccn3n2)cn1)N1CCC(N2CCn3nccc3C2)CC1 [Example 179, 1-[3-[2-[[1-[2-[4-(6,7-dihydro-4H-pyrazolo[1,5-a]pyrazin-5-yl)-1-piperidyl]-2-oxo-ethyl]pyrazol-4-yl]amino]-[1,2,4]triazolo[1,5-a]pyridin-8-yl]-3,8-diazabicyclo[3.2.1]octan-8-yl]-4,4,4-trifluoro-butan-1-one; formic acid]",67.2
11,"CN1CCN(C(=O)Cn2cc(Nc3nc4c(N5CC6CCC(C5)N6C(=O)N5CC(F)C5)cccn4n3)cn2)CC1 [Example 170, 2-[4-[[8-[8-(3-fluoroazetidine-1-carbonyl)-3,8-diazabicyclo[3.2.1]octan-3-yl]-[1,2,4]triazolo[1,5-a]pyridin-2-yl]amino]pyrazol-1-yl]-1-(4-methylpiperazin-1-yl)ethanone]",14.1
12,"CC(C(=O)N1CCN(C)CC1)n1cc(Nc2nc3c(N4CC5CCC(C4)N5C(=O)C4CC(C(F)(F)F)C4)cccn3n2)cn1 (stereo not drawn) [Example 126, 1-(4-methylpiperazin-1-yl)-2-[4-[[8-[8-(3-(trifluoromethyl)-cyclobutanecarbonyl]-3,8-diazabicyclo[3.2.1]octan-3-yl]-[1,2,4]triazolo[1,5-a]pyridin-2-yl]amino]pyrazol-1-yl]propan-1-one]",165
13,"CN1CCN(C(=O)Cn2cc(Nc3nc4c(N5CC6CCC(C5)N6Cc5ccccc5F)cccn4n3)cn2)CC1 [Example 137, 2-(4-((8-((1R,5 S)-8-(2-fluorobenzyl)-3,8-diazabicyclo[3.2.1]octan-3-yl)-[1,2,4]triazolo[1,5-a]pyridin-2-yl)amino)-1H-pyrazol-1l-yl)-1-(4-methylpiperazin-1-yl)ethan-1-one]",42
14,"CN1CCN(C(=O)Cn2cc(Nc3nc4c(N5CC6CCC(C5)N6S(=O)(=O)CCC(F)(F)F)cccn4n3)cn2)CC1 [Example 60, 1-(4-methylpiperazin-1-yl)-2-[4-[[8-[8-(3,3,3-trifluoropropylsulfonyl)-3,8-diazabicyclo[3.2.1]octan-3-yl]-[1,2,4]triazolo[1,5-a]pyridin-2-yl]amino]pyrazol-1-yl]ethanone]",24.5
15,"CSc1cccc(C(=O)N2C3CCC2CN(c2cccn4nc(Nc5cnn(CC(=O)N6CCN(C)CC6)c5)nc24)C3)c1 [Example 100, 1-(4-methylpiperazin-1-yl)-2-[4-[[8-[8-(3-methylsulfanylbenzoyl)-3,8-diazabicyclo[3.2.1]octan-3-yl]-[1,2,4]triazolo[1,5-a]pyridin-2-yl]amino]pyrazol-1-yl]ethanone]",109
16,"CN1CCN(C(=O)Cn2cc(Nc3nc4c(N5CC6CCC5CN6C(=O)CCC(F)(F)F)cccn4n3)cn2)CC1 (stereo not drawn) [Example 25, 4,4,4-trifluoro-1-[5-[2-[[1-[2-(4-methylpiperazin-1-yl)-2-oxo-ethyl]pyrazol-4-yl]amino]-[1,2,4]triazolo[1,5-a]pyridin-8-yl]-2,5-diazabicyclo[2.2.2]octan-2-yl]butan-1-one]",36.4
17,"CN(CC1(C#N)CC1)C1CCN(C(=O)Cn2cc(Nc3nc4c(N5CC6CCC(C5)N6C(=O)C5CC(C(F)(F)F)C5)cccn4n3)cn2)CC1 (stereo not drawn) [Example 193, 1-[[methyl-[1-[2-[4-[[8-[8-[3-(trifluoromethyl)cyclobutanecarbonyl]-3,8-diazabicyclo[3.2.1]octan-3-yl]-[1,2,4]triazolo[1,5-a]pyridin-2-yl]amino]pyrazol-1-yl]acetyl]-4-piperidyl]amino]methyl]-cyclopropanecarbonitrile]",46.7
18,"CN1CCN(C(=O)Cn2cc(Nc3nc4c(N5CC6CCC(C5)N6C(=O)C5(C#N)CCC5)cccn4n3)cn2)CC1 [Example 116, 1-[3-[2-[[1-[2-(4-methylpiperazin-1-yl)-2-oxo-ethyl]pyrazol-4-yl]amino]-[1,2,4]triazolo[1,5-a]pyridin-8-yl]-3,8-diazabicyclo[3.2.1]octane-8-carbonyl]cyclobutane-carbonitrile]",157
19,"CN1CCN(C(=O)Cn2cc(Nc3nc4c(N5CC6CCC(C5)N6S(=O)(=O)c5ccc(F)cc5)cccn4n3)cn2)CC1 [Example 134, 2-[4-[[8-[8-(4-fluorophenyl)sulfonyl-3,8-diazabicyclo[3.2.1]octan-3-yl]-[1,2,4]triazolo[1,5-a]pyridin-2-yl]amino]pyrazol-1-yl]-1-(4-methylpiperazin-1-yl)ethanone]",33.6
20,"CSC1CN(C(=O)N2C3CCC2CN(c2cccn4nc(Nc5cnn(CC(=O)N6CCN(C)CC6)c5)nc24)C3)C1 [Example 171, 1-(4-methylpiperazin-1-yl)-2-[4-[[8-[8-(3-methylsulfanylazetidine-1-carbonyl)-3,8-diazabicyclo[3.2.1]octan-3-yl]-[1,2,4]triazolo[1,5-a]pyridin-2-yl]amino]pyrazol-1-yl]ethanone]",238
21,"CN1CCN(C(=O)Cn2cc(Nc3nc4c(N5CC6CCC(C5)N6S(=O)(=O)c5cccc(C#N)c5)cccn4n3)cn2)CC1 [Example 143, 3-[[3-[2-[[1-[2-(4-methylpiperazin-1-yl)-2-oxo-ethyl]pyraol-4-yl]amino]-[1,2,4]triazolo[1,5-a]pyridin-8-yl]-3,8-diazabicyclo[3.2.1]octan-8-yl]sulfonyl]benzonitrile]",34.1
22,"O=C(Cn1cc(Nc2nc3c(N4CC5CCC(C4)N5C(=O)CCC(F)(F)F)cccn3n2)cn1)N1CCN(C2CCOCC2)CC1 [Example 10, 4,4,4-trifluoro-1-[3-[2-[[1-[2-oxo-2-(4-tetrahydropyran-4-ylpiperazin-1-yl)ethyl]pyrazol-4-yl]amino]-[1,2,4]triazolo[1,5-a]pyridin-8-yl]-3,8-diazabicyclo[3.2.1]octan-8-yl]butan-1-one]",66.6
23,"O=C(Cn1cc(Nc2nc3c(N4CC5CCC(C4)N5C(=O)[C@H]4C[C@H](C(F)(F)F)C4)cccn3n2)cn1)N1CCN(C2CSC2)CC1 [Example 83, 1-[4-(thietan-3-yl)piperazin-1-yl]-2-[4-[[8-[8-[3-(trifluoromethyl)cyclo-butanecarbonyl]-3,8-diazabicyclo[3.2.1]octan-3-yl]-[1,2,4]triazolo[1,5-a]pyridin-2-yl]amino]pyrazol-1-yl]ethanone]",161
24,"CSC1CCN(C(=O)N2C3CCC2CN(c2cccn4nc(Nc5cnn(CC(=O)N6CCN(C)CC6)c5)nc24)C3)CC1 [Example 180, 1-(4-methylpiperazin-1-yl)-2-[4-[[8-[8-(4-methylsulfanylpiperidine-1-carbonyl)-3,8-diazabicyclo[3.2.1]octan-3-yl]-[1,2,4]triazolo[1,5-a]pyridin-2-yl]amino]pyrazol-1-yl]ethanone]",95.9
